Test results: publication PMC11079024, “Identification of a family of species-selective complex I inhibitors as potential anthelmintics” (Nature Communications, 2024)
Where “and” joins values, the source holds several entries; their conditions need not be identical. Equal values may be shown once.

By UniProt entry, the sequences of proteins in these tests, tags left out. Where a name states a change or a piece, a line headed by the entry shows the natural chain unless it says otherwise. Residues count along the entry.
UniProt P24887: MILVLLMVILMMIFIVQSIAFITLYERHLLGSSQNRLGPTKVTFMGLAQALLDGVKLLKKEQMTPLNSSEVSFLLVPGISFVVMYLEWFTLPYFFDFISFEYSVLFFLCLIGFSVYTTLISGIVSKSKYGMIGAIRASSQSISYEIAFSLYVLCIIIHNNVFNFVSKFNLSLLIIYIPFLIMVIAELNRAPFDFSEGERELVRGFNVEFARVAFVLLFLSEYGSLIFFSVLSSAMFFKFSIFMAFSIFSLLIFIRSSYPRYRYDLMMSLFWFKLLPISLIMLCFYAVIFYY
UniProt Q93873, 31-482: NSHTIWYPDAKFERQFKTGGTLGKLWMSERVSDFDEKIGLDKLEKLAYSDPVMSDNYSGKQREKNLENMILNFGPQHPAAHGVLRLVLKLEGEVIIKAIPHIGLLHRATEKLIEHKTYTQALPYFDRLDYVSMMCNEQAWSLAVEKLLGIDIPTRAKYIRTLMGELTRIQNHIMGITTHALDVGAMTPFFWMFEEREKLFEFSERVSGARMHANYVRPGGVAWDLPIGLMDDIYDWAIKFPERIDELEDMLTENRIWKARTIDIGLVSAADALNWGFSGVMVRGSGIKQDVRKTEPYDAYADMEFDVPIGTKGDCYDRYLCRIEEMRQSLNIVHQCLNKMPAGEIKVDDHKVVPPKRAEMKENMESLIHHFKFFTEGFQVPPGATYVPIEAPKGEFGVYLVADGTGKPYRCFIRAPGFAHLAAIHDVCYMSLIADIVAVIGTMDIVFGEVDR
UniProt Q94360, 17-199: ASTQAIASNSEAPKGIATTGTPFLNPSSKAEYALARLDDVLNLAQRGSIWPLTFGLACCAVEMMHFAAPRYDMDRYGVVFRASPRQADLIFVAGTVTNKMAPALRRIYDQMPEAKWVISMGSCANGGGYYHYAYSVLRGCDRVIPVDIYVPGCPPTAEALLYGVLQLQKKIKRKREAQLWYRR
UniProt A4UAP3: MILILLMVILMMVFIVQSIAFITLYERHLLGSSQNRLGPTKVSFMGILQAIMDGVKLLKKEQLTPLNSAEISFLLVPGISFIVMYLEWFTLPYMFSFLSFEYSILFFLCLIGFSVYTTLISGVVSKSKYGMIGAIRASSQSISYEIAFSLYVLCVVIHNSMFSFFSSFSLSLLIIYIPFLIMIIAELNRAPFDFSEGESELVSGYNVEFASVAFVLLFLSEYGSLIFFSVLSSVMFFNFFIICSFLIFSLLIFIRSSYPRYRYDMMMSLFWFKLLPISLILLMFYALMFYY

What was measured:
[1] = biological target: C. elegans (N2) complex I (NADH:ubiquinone oxidoreductase) (Caenorhabditis elegans, UniProt P24887+Q93873+Q94360); assay: biochemical; type: biochemical; conditions: wild-type C. elegans, single replicate
P. pacificus complex I = P. pacificus complex I (Pristionchus pacificus, UniProt A0A454XZ18+A0A8R1Z3U8+A4UAP3); assay: In vitro complex I activity assay, P. pacificus mitochondria; type: biochemical; conditions: single replicate

Cc1ccccc1OCCCCn1cnc2ccccc21 [Compound 7732524]
in vitro complex I activity relative to solvent control, individual replicate ([1]; dose 0.0001 µM): 139.221% and 123.764% and 79.935% and 92.468% | in vitro complex I activity relative to solvent control, individual replicate ([1]; dose 0.0005 µM): 155.142% and 144.844% and 81.294% and 85.351% | in vitro complex I activity relative to solvent control, individual replicate ([1]; dose 0.001 µM): 146.259% and 130.004% and 90.484% and 91.636% | in vitro complex I activity relative to solvent control, individual replicate ([1]; dose 0.0025 µM): 142.023% and 123.020% and 76.998% and 83.273% | in vitro complex I activity relative to solvent control, individual replicate ([1]; dose 0.005 µM): 93.953% and 95.021% and 73.083% and 86.286% | in vitro complex I activity relative to solvent control, individual replicate ([1]; dose 0.013 µM): 121.592% and 104.688% and 83.850% and 71.585% | in vitro complex I activity relative to solvent control, individual replicate ([1]; dose 0.025 µM): 107.346% and 94.375% and 68.842% and 69.039% | in vitro complex I activity relative to solvent control, individual replicate ([1]; dose 0.063 µM): 64.371% and 60.903% and 51.636% | in vitro complex I activity relative to solvent control, individual replicate ([1]; dose 0.125 µM): 41.869% and 55.628% and 39.325% | in vitro complex I activity relative to solvent control, individual replicate ([1]; dose 0.313 µM): 25.930% and 34.638% and 19.481% | in vitro complex I activity relative to solvent control, individual replicate ([1]; dose 0.625 µM): 6.702% and 13.127% and 8.554% | in vitro complex I activity relative to solvent control, individual replicate ([1]; dose 1.5 µM): 3.568% and 5.741% and 1.820% and 0.0001% | in vitro complex I activity relative to solvent control, individual replicate ([1]; dose 3 µM): 0.000% and 2.579% | in vitro complex I activity relative to solvent control, individual replicate ([1]; dose 7.5 µM): 3.059% and 0.000% | in vitro complex I activity relative to solvent control, individual replicate ([1]; dose 15 µM): 0.000% | in vitro complex I activity relative to solvent control, individual replicate ([1]; dose 37.5 µM): 0.892% and 0.000% and 2.592% | in vitro complex I activity relative to solvent control, individual replicate ([1]; dose 75 µM): 3.462% and 1.513% and 20.794% and 0.000% | in vitro complex I activity relative to solvent control (P. pacificus complex I; 0.0001 µM): 76.630% and 92.164% | in vitro complex I activity relative to solvent control (P. pacificus complex I; 0.0005 µM): 100.064% and 87.294% and 78.341% | in vitro complex I activity relative to solvent control (P. pacificus complex I; 0.001 µM): 99.189% and 85.252% and 42.987% | in vitro complex I activity relative to solvent control (P. pacificus complex I; 0.0025 µM): 98.462% and 65.488% and 128.163% | in vitro complex I activity relative to solvent control (P. pacificus complex I; 0.005 µM): 105.904% and 74.342% and 120.349% | in vitro complex I activity relative to solvent control (P. pacificus complex I; 0.013 µM): 86.610% and 65.249% and 105.458% | in vitro complex I activity relative to solvent control (P. pacificus complex I; 0.025 µM): 68.907% and 60.445% and 91.713% | in vitro complex I activity relative to solvent control (P. pacificus complex I; 0.063 µM): 48.640% and 29.074% and 62.055% | in vitro complex I activity relative to solvent control (P. pacificus complex I; 0.125 µM): 15.764% and 13.994% and 44.232% | in vitro complex I activity relative to solvent control (P. pacificus complex I; 0.313 µM): 12.069% and 4.401% and 8.231% | in vitro complex I activity relative to solvent control (P. pacificus complex I; 0.625 µM): 17.485% and 8.622% and 8.276% | in vitro complex I activity relative to solvent control (P. pacificus complex I; 1.5 µM): 15.665% and 7.003% and 6.302% | in vitro complex I activity relative to solvent control (P. pacificus complex I; 3 µM): 17.516% and 6.831% and 5.367% | in vitro complex I activity relative to solvent control (P. pacificus complex I; 7.5 µM): 28.020% and 8.306% and 0.416% | in vitro complex I activity relative to solvent control (P. pacificus complex I; 15 µM): 14.842% and 17.819% | in vitro complex I activity relative to solvent control (P. pacificus complex I; 37.5 µM): 22.555% and 15.242% and 10.392% | in vitro complex I activity relative to solvent control (P. pacificus complex I; 75 µM): 13.041% and 7.929% and 1.766%
